Experimental data published in patent publication US20170146519A1, “STING AGONISTS AND METHODS OF SELECTING STING AGONISTS” (priority 2015, published 2017).

Key:
[1] = test system: IRF3/IFN-dependent genes in THF; type: cell-based, human
[2] = test system: Sindbis virus (SINV); type: cell-based
[3] = test system: Mx2 and ISG56 proteins; type: cell-based, human

B1: IFNβ: Human recombinant IFNβ obtained from PBL, control stimulus at 1000 U/mL (protein, UniProt P01574 22-187, looked up)
Interferon beta: MSYNLLGFLQRSSNFQCQKLLWQLNGRLEYCLKDRMNFDIPEEIKQLQQFQKEDAALTIYEMLQNIFAIFRQDSSSTGWNETIVENLLANVYHQINHLKTVLEEKLEKEDFTRGKLMSSLHLKRYYGRILHYLKAKEYSHCAWTIVRVEILRNFYFINRLTGYLRN
In the case of B1, the “Mx2 and OAS mRNA induction” value [1] is reported as “substantial induction”, the “SINV replication in cells lacking IRF3” value [2] is reported as “capable of inhibiting virus replication” and the “SINV replication in cells lacking IPS-1” value ([2]; 48 h) is reported as “diminishes replication of all three virus types by multiple logs”. For the same molecule, the “SINV replication in cells lacking STAT1” value ([2]; 48 h) was “profound”, the “Mx2 and ISG56 proteins in STAT1-deficient cells” value [3] was “still detectable” and the “synthesis of Mx2 and ISG56 proteins” value [3] was “capable of triggering synthesis of Mx2 and ISG56 proteins”.
